# Results published in PubChem BioAssay AID435003 (Sanford-Burnham Center for Chemical Genomics, 2010).
# The entries are a selection whose mix differs from that of the whole data set. Some salts and complexes are drawn in separate pieces, as the source files them; their charges need not balance. The source made the active and inactive calls. Cut-off read from the data, not from the text of the source: active = inhibition above about 50%; inactive = the rest.
# Assay: lowers stimulated NF-kB reporter luminescence – cell-based, uHTS, TCR NF-kB activation inhibitor project, primary screen (AID 435003)
# Conditions: Jurkat, PMA/ionomycin-induced NF-kB luciferase reporter, at 4 µM, stronger effect = higher value
row,Compound,inhibition
1,COc1ccc(OP(C)(=O)Nc2ccccc2Br)cc1 (stereo not drawn),inactive: -0.34%
2,COc1ccccc1OP(C)(=O)Nc1ccc(C)c(C)c1 (stereo not drawn),inactive: 21.4%
3,Cc1cc(C)cc(OP(C)(=O)Nc2cccc(C(F)(F)F)c2)c1 (stereo not drawn),inactive: 8.91%
4,CP(=O)(Nc1ccc(Cl)cc1Cl)Oc1ccccc1 (stereo not drawn),inactive: -2.11%
5,CP(=O)(OCCOc1ccccc1)OCCOc1ccccc1,inactive: 1.87%
6,Cc1nc2ccc3ccccc3c2o1.O=[N+]([O-])c1cc([N+](=O)[O-])c(O)c([N+](=O)[O-])c1,inactive: -6.99%
7,CN(C)CCOC(=O)C(O)(c1ccccc1)C1CCCC1 (stereo not drawn),inactive: 6.88%
8,COc1ccc(OP(C)(=O)Nc2ccccn2)cc1 (stereo not drawn),inactive: 9.13%
9,COc1ccccc1OP(C)(=O)Nc1ccc(Br)cc1 (stereo not drawn),inactive: -14.6%
10,CCc1ccc(OP(C)(=O)O)cc1,inactive: 4.65%
11,COc1ccccc1OP(C)(=O)Nc1ccc(C)cc1C (stereo not drawn),inactive: -4.19%
12,CP(=O)(Nc1ccccn1)Oc1ccccc1 (stereo not drawn),inactive: -16.8%
13,Cc1c(NP(C)(=O)Oc2ccc(C(C)C)cc2)c(=O)n(-c2ccccc2)n1C (stereo not drawn),inactive: -0.204%
14,O=[N+]([O-])c1cc([N+](=O)[O-])c(Nc2ccccn2)c([N+](=O)[O-])c1,inactive: 9.68%
15,CCc1ccc(OP(C)(=O)Nc2cccnc2)cc1 (stereo not drawn),inactive: 1.85%
16,CP(=O)(Oc1ccccc1)N1CCOC1=O (stereo not drawn),inactive: -3.2%
17,O=C(OCCCN1CCCC1)C(O)(c1ccccc1)C1CCCCC1 (stereo not drawn),inactive: 6.4%
18,COc1ccccc1OP(C)(=O)Nc1c(C)n(C)n(-c2ccccc2)c1=O (stereo not drawn),inactive: 0.973%
19,COc1ccc(OP(C)(=O)Nc2ccc(Br)cc2)cc1 (stereo not drawn),inactive: -3.83%
20,CCN(CC)CC(O)COC(=O)C(O)(c1ccccc1)C1CCCCC1 (stereo not drawn),inactive: 4.43%

row,Compound,inhibition
1,CN(C)C(=O)c1c([N+](=O)[O-])cc([N+](=O)[O-])cc1[N+](=O)[O-],inactive: 9.24%
2,CP(=O)(Nc1ccc(Cl)cc1)Oc1ccc(F)cc1 (stereo not drawn),inactive: 11.4%
3,COc1ccccc1OP(C)(=O)Nc1ccccc1Br (stereo not drawn),inactive: 0.00233%
4,CC(C)(C)c1ccc(OP(C)(=O)O)cc1,inactive: -10.4%
5,CP(=O)(OC12CC3CC(CC(C3)C1)C2)OC12CC3CC(CC(C3)C1)C2,inactive: -9.52%
6,CCOC(=O)c1ccc(NP(C)(=O)Oc2ccc(Cl)cc2)cc1 (stereo not drawn),inactive: 7.8%
7,Nc1ccc2c(ccc3cccnc32)n1.O=[N+]([O-])c1cc([N+](=O)[O-])c(O)c([N+](=O)[O-])c1,inactive: -2.49%
8,COc1ccc(NP(C)(=O)Oc2ccccc2OC)cc1 (stereo not drawn),inactive: 12.7%
9,CN(C)CCOC(=O)C(O)(c1ccccc1)C1CCCCC1 (stereo not drawn),inactive: -4.72%
10,COc1ccc(OP(C)(=O)Nc2cccc(Br)c2)cc1 (stereo not drawn),inactive: -10.3%
11,O=[N+]([O-])c1cc([N+](=O)[O-])c(NCC2CCS(=O)(=O)C2)c([N+](=O)[O-])c1 (stereo not drawn),inactive: -1.58%
12,CCOP(C)(=S)SCC(=O)NC(C)(CC)C(=O)O (stereo not drawn),inactive: -2.93%
13,CP(=O)(Nc1ccc(SC(F)(F)F)cc1)Oc1ccc(F)cc1 (stereo not drawn),inactive: -2.51%
14,Cc1ccccc1NP(C)(=O)Nc1ccccc1C,inactive: -3.91%
15,CP(=O)(Nc1ccc2c(c1)OCCO2)Oc1ccccc1 (stereo not drawn),inactive: 8.64%
16,CC(C)c1ccc(OP(C)(=O)Nc2ccc(SC(F)(F)F)cc2)cc1 (stereo not drawn),inactive: 0.861%
17,CP(=O)(Nc1ccccc1F)Oc1ccccc1 (stereo not drawn),inactive: -5.45%
18,COc1ccc2c(c1O)-c1c(O)c(OC)cc3c1[C@H](C2)[N+](C)(C)CC3.O=[N+]([O-])c1cc([N+](=O)[O-])c([O-])c([N+](=O)[O-])c1[O-],inactive: 0.14%
19,O=C(OCCN1CCN(CCOCc2ccccc2)CC1)C(O)(c1ccccc1)c1ccccc1,inactive: 3.57%
20,O=C(OC1CN2CCC1CC2)c1ccc([N+](=O)[O-])cc1 (stereo not drawn),inactive: -15.6%

row,Compound,inhibition
1,COc1ccc(OP(C)(=O)Nc2ccc(SC(F)(F)F)cc2)cc1 (stereo not drawn),inactive: 8.36%
2,CCOC(=O)c1ccc(NP(C)(=O)Oc2ccc(F)cc2)cc1 (stereo not drawn),inactive: 8.9%
3,CCCCCOc1ccc(NP(C)(=O)Oc2ccc(Cl)cc2Cl)cc1 (stereo not drawn),inactive: -16.3%
4,O=[N+]([O-])c1cc([N+](=O)[O-])c(OC2CCCCC2O)c([N+](=O)[O-])c1 (stereo not drawn),inactive: 1.93%
5,CP(=O)(Nc1ccccc1)Oc1ccc(F)cc1 (stereo not drawn),inactive: -7.18%
6,CCN(CC)CCCOC(=O)C(O)(c1ccccc1)C1CCCCC1 (stereo not drawn),inactive: -20.2%
7,O=C(O)c1cccc(Nc2c([N+](=O)[O-])cc([N+](=O)[O-])cc2[N+](=O)[O-])c1,inactive: 2.04%
8,CC1=NCCc2c1[nH]c1ccccc21.O=[N+]([O-])c1cc([N+](=O)[O-])c(O)c([N+](=O)[O-])c1,inactive: 7.58%
9,Cc1cc(C)cc(OP(C)(=O)Nc2ccc(C)cc2C)c1 (stereo not drawn),inactive: -2.04%
10,CCOC(=O)c1ccc(NP(C)(=O)Oc2cc(C)cc(C)c2)cc1 (stereo not drawn),inactive: -8.01%
11,COc1ccccc1OP(C)(=O)Nc1cccc(Br)c1 (stereo not drawn),inactive: -4.44%
12,Cc1cc(C)cc(OP(C)(=O)Nc2ccccn2)c1 (stereo not drawn),inactive: 8.9%
13,CP(=O)(Nc1cccc(Br)c1)Oc1ccccc1 (stereo not drawn),inactive: 9.9%
14,Cc1ccc(C)c(NP(C)(=O)Oc2ccccc2)c1 (stereo not drawn),inactive: 9.69%
15,O=[N+]([O-])c1cc([N+](=O)[O-])c(-n2nnc3ccccc32)c([N+](=O)[O-])c1,inactive: 0.104%
16,Cc1nc2ccc3ccccc3c2s1.O=[N+]([O-])c1cc([N+](=O)[O-])c(O)c([N+](=O)[O-])c1,inactive: -4.24%
17,O=[N+]([O-])c1cc([N+](=O)[O-])c(-c2cnn(-c3ccccc3)c2)c([N+](=O)[O-])c1,inactive: -4.77%
18,CCOC(=O)C(CC)C1=NC(C)(C)Cc2ccccc21.O=[N+]([O-])c1cc([N+](=O)[O-])c(O)c([N+](=O)[O-])c1 (stereo not drawn),inactive: -10%
